# Measured affinities in a library of Ab-95 light chain variants

Source: Engelhart et al. 2022 (doi:10.1038/s41597-022-01779-4), MIT Lincoln Laboratory and A-Alpha Bio; data file from the FLAb repository.

Antigen: PDVDLGDISGINAS, a 14-residue peptide of the SARS-CoV-2 spike HR2 region.

The variants keep the heavy chain, the linker and the frameworks of Ab-95 (scFv order VH, three GGGGS repeats, VL).
VH: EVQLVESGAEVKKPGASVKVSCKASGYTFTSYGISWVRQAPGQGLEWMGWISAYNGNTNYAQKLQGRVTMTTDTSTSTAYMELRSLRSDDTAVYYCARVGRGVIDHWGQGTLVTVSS
VL: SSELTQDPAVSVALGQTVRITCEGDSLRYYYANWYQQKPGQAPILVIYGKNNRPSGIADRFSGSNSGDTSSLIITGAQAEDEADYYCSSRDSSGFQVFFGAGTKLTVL

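The starting antibody came from a phage panning campaign against this peptide. Library AAYL52 holds single substitutions and randomly drawn double and triple substitutions in the CDRs. AlphaSeq pools MATa yeast showing the antibodies with MATalpha yeast showing the peptide. Pairs that bind mate more often; barcode pairs of the diploids are counted by sequencing. Read counts were normalised to the haploid input and turned into Kd by a linear fit to BCL2-family pairs of known affinity, for each replicate. Each pool was mated in three replicate cultures.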

Variants are written as CDR1, CDR2 and CDR3 of the light chain (limits as in the source). Parent: EGDSLRYYYAN, GKNNRPS, SSRDSSGFQVF.
Each Kd is an estimate from the mating assay, the geometric mean of the replicates in which the pair was seen; lower is stronger.
A pair that was not seen in any replicate is written "not detected"; this usually means weak binding, but a binder can also be missed.

| CDR-L1 | CDR-L2 | CDR-L3 | Kd (apparent) | replicates with signal |
|---|---|---|---|---|
| EGDSLRYYYRN | GKNNTPS | SSRDSSGFEVF | 9.3 µM | 3/3 |
| EGDSLRYYYAN | GKNNSPS | SSRDSHGFQSF | 790 nM | 1/3 |
| EQDSGQYYYAN | GKNNRPS | SSRDSSGFQVF | 13 µM | 1/3 |
| EGPSLRYYYAN | GDNNRPS | SSRQSSGFQVF | 2.6 µM | 3/3 |
| EGDSLRYYYAN | GKNNNLS | VSRDSSGFQVF | 1.1 µM | 2/3 |
| EGDSLRYYYAN | GKNNRPS | YSRDSYGFQHF | 910 nM | 3/3 |
| EGDSLRYYYAN | GKNNRPS | ISRDRSGFDVF | not detected | 0/3 |
| EGDSLRGMYAN | GKNNRPS | SDRDSSGFQVF | 280 nM | 3/3 |
| EGDSLRYTYAN | GKNNRPE | SSRWSSGFQVF | 240 nM | 3/3 |
| ENDSLRYYYAN | GKNTRPS | SSRTSSGFQVF | not detected | 0/3 |
| EGDSCRYYYAN | WKNNRPS | SSRDGSGFQVF | not detected | 0/3 |
| FGDSLRYYYAN | FKNNRPS | SSRDMSGFQVF | not detected | 0/3 |
| ECDSLRYYYIN | GKNYRPS | SSRDSSGFQVF | 480 nM | 3/3 |
| EGDSLRDYYAN | GALNRPS | SSRDSSGFQVF | 340 nM | 3/3 |
| EGPSLEYYYAN | GKNNRPS | SSRGSSGFQVF | 190 nM | 3/3 |
| EGDSLRYMYAN | GKNNRSS | SSLDSSGFQVF | 220 nM | 3/3 |
| EGDSLRYYYAN | GKHNRPS | WSRDSSGFQVF | 1.5 µM | 3/3 |
| EGMSLRYYYAN | GKNNRPS | MSRDSSFFQVF | 6.0 µM | 2/3 |
| EGDSLRYYYCN | GKNNRPS | SSRDSSGFQVD | 43 µM | 2/3 |
| EGDSLRYYQIN | LKNNRPS | SSRDSSGFQVF | 100 µM | 1/3 |
| FGDSMRYTYAN | GKNNRPS | SSRDSSGFQVF | 30 nM | 3/3 |
| EGASLRYYYAN | GKNNRPS | SSRDSSGFQNK | not detected | 0/3 |
| EGDSLRYDYAC | GQNNRPS | SSRDSSGFQVF | 8.1 µM | 3/3 |
| EGDSLPYYYAN | GKNNRPS | SSRPSSGFQVT | 960 nM | 3/3 |
| EGDNLRYYYHN | GKNNAPS | SSRDSSGFQVF | not detected | 0/3 |
| EGDSLRYYYFN | GKNNRPS | SSCDSSGYQVF | not detected | 0/3 |
| EGDSSRYYYAN | GKNNRPL | SRRDSSGFQVF | 3.4 µM | 3/3 |
| EGDSLRYYYAN | GKNNRSS | SSRCSSGFQVQ | 710 nM | 3/3 |
| EGDSLRYYYAN | GKNNMPS | SSRDSSWFGVF | 5.5 µM | 3/3 |
| SGDSLRYYYAN | GKDCRPS | SSRDSSGFQVF | 74 µM | 2/3 |
| EGDSLRYYYVN | GKNNRPS | SSRDSSNFTVF | 12 µM | 1/3 |
| EGDSLRYYYAN | GKNNRPS | VLRLSSGFQVF | not detected | 0/3 |
| EGDSLRYNYHN | GKNNRPS | SSRDSVGFQVF | 150 µM | 2/3 |
| EGDSLDYYYAN | GKNNRPS | SSRDSSGFEVT | 3.4 µM | 2/3 |
| EGDSLRYYYAN | GKNNRPS | SSRDSMGYQKF | not detected | 0/3 |
| EGDSLRYYYAH | GKNNRPS | SSRDSSGFHVF | 5.1 µM | 2/3 |
| EGDDLRYYYAN | GKNNRPS | SSRDSRGMQVF | not detected | 0/3 |
| EGDRLRYYYAN | GQNNRPS | PSRDSSGFQVF | 4.7 µM | 3/3 |
| DGDSLRYYYAN | GKKNRPS | SSRDSSGFQTF | 4.6 µM | 2/3 |
| EGNSLRYYYAQ | GKNNRPS | SSRDSSGFQVE | 110 µM | 1/3 |
| EGMFLRYYYAN | GKNNRPS | SSRCSSGFQVF | 7.9 µM | 2/3 |
| EGDSLRYYYAN | GKNNRPS | QSRDSPGFQVF | 95 nM | 3/3 |
| EGDSLRYYYTN | GKNIRPS | SLRDSSGFQVF | 580 nM | 3/3 |
| EGDSLRRYYAN | GKNNIPS | SSRDSSGFQVH | 1.8 µM | 3/3 |
| EGDSERYYYAN | GKHHRPS | SSRDSSGFQVF | 12 µM | 1/3 |
| EGDSLRYYYAN | AKNNRPS | SSRISSWFQVF | 4.3 µM | 3/3 |
| EGDSLCYVYAN | GCNNRPS | SSRDSSGFQVF | 2.4 µM | 1/3 |
| EGRSLRYYYAN | GKNNRPS | SSRDDSGFSVF | 490 nM | 3/3 |
| EGDSLRTYYAN | GKNNRPS | SSRDFSGMQVF | 65 nM | 3/3 |
| EGDSLRYYYCN | GKNHRPS | SSRDSSGFQVF | 1.8 µM | 3/3 |
| EGDSLRYYYAN | EKNNRPS | MSRPSSGFQVF | 4.2 µM | 3/3 |
| EGDSLPYYYAN | GKNNRPG | SSRDSKGFQVF | 770 nM | 3/3 |
| LGDSLRYYYAN | GKWNRPS | SARDSSGFQVF | not detected | 0/3 |
| EGDSLRYYYAN | GPNSRPS | SSRISSGFQVF | 150 nM | 3/3 |
| EGDSLRYYYAN | GKNNMPS | SSLMSSGFQVF | 7.1 µM | 2/3 |
| EGDSLRYYYAN | HKNNRPI | SSRDESGFQVF | 600 nM | 1/3 |
| EGDELRHYYAN | GKNNRPS | SSRDSSGGQVF | 3.8 µM | 2/3 |
| ECDSLRLYYAN | GHNNRPS | SSRDSSGFQVF | 8.1 µM | 3/3 |
| EGDSLRYVYAN | GVLNRPS | SSRDSSGFQVF | not detected | 0/3 |
| EGDSLPYYYAN | GKNPRPS | ISRDSSGFQVF | 15 µM | 3/3 |
| EADSLRYYYAN | GGNNRPS | SSRDSSGIQVF | 890 nM | 2/3 |
| EGDSLRYRYAN | GKNNRPQ | SSRVSSGFQVF | 260 µM | 1/3 |
| EGDSLQQYYAN | GKNNRPS | SSRMSSGFQVF | 14 µM | 1/3 |
| EGDSLRYYCRD | GKNNRPS | SSRDSSGFQVF | 2.3 µM | 1/3 |
| EGDSLDYDYAN | GNNNRPS | SSRDSSGFQVF | 440 nM | 3/3 |
| EGDSLRYYYAN | GKNNRAS | SSLDLSGFQVF | 120 nM | 3/3 |
| EGDSLRYYTAN | PKNNRPS | SSRDSSGFKVF | 5.5 µM | 1/3 |
| EGDSLRYYYAN | GKNNRPV | SSPDSSGFQVF | 20 µM | 2/3 |
| EGDSLRYYYAN | GKNFRPS | SSRDSPGAQVF | 950 nM | 3/3 |
| LGDSLRYYYAN | GKNNRPS | SSRDSDGFQVY | 1.4 µM | 3/3 |
| YGDSLRYYYAN | GKNNRPA | SSRDSSGPQVF | 2.7 µM | 3/3 |
| EGDSLRYYYAS | GKNNRPS | SERDSSGQQVF | 12 µM | 2/3 |
| EGDQLRYYRAN | GKNNRPS | SIRDSSGFQVF | 6.9 µM | 3/3 |
| ECKSLRYYYAN | GKNNRPS | SSRKSSGFQVF | 3.6 µM | 3/3 |
| EGDSLRYMYAN | GKNRRPS | SSRDSSGFQVE | 220 nM | 3/3 |
| EGDSLRYYYAN | GKCNNPI | SSRDSSGFQVF | 8.6 µM | 2/3 |
| EGDSLRYYDAT | GANNRPS | SSRDSSGFQVF | 410 nM | 3/3 |

Empty control strains, which show no peptide, gave a signal in 28% of pairings with library AAYL52; the median was 8.2 µM and 95% of these signals were weaker than 800 nM. No background was subtracted.
For reference, the parent read 200 nM as the reference entry and 180 nM as a member of this library.